# Values of other authors in patent US11890324B2, “Compounds for use in inducing myocardial perfusion recovery” (Epoqe Pharma ApS, priority 2018, dated 2024).
# Settings: in vivo; cited from earlier work
substance,measurement,value
N-alpha-[2-(2-{2-[(S)-4-Carboxy-4-(17-carboxyheptadecanoylamino)-butyrylamino]-ethoxy}ethoxy)acetyl](Ser1]alpha-human CGRP peptide [Compound I],Half-life as compared to CGRP (in words),increased
